Experiments:
[1] = target: T1, FGFR3 (Homo sapiens, UniProt P22607); experiment: ADP-Glo kinase inhibition assay, FGFR3; format: biochemical; settings: kinase activity, 10 μM ATP, n = 3
T1 construct: FGFR3 (residues 450−758); 6×His (N, cleaved yes); made in house; host or cells: E. coli BL21 (DE3), co-expressed with YOPH

Sequences of proteins named here, by UniProt entry; tags and fusion partners are left off. Residues count along the entry.
UniProt P22607, 450-758: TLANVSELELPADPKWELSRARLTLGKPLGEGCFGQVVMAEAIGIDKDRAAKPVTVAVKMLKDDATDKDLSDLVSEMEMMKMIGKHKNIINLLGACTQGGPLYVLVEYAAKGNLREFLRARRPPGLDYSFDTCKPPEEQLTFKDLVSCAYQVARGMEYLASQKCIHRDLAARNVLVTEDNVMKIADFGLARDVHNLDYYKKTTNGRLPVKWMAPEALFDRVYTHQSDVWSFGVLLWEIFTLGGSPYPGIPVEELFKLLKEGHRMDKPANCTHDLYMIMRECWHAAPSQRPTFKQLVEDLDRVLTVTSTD
UniProt P22607, 450-758 V555M: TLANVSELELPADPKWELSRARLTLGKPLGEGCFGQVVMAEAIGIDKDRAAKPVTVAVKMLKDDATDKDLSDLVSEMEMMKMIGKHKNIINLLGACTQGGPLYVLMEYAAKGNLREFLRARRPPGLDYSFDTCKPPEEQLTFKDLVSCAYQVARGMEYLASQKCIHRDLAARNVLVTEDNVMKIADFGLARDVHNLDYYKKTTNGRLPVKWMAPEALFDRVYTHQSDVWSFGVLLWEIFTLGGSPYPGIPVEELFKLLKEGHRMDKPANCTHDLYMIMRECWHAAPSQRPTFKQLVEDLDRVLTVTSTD

[2] = target: T2, FGFR3(V555M) (Homo sapiens, UniProt P22607, V555M); experiment: ADP-Glo kinase inhibition assay, FGFR3(V555M) gatekeeper mutant; format: biochemical; settings: kinase activity, 10 μM ATP, n = 3
T2 construct: FGFR3 (residues 450−758); 6×His (N, cleaved yes); made in house; host or cells: E. coli BL21 (DE3), co-expressed with YOPH

[3] = target: T3, SRC (Gallus gallus, UniProt P00523); experiment: MALDI-TOF MS covalent adduct formation, SRC; format: binding, chicken; settings: protein:inhibitor 1:2, overnight, 4 °C
T3 construct: chicken SRC (residues 251−533); 6×His (N, cleaved yes); made in house; host or cells: E. coli BL21 (DE3), co-expressed with YOPH
Method: FGFRs, SRC and HCK were prepared as previously described[31]–[33]. Briefly, the kinase domain of human FGFR1 (residues 456−765), FGFR2 (residues 453−770), FGFR3 (residues 450−758), FGFR4 (residues 445−753), chicken SRC (residues 251−533) and human HCK (residues 247−526) were respectively cloned into a modified pET28a expression vector with a N-terminal 6×His tag followed by a PreScission or TEV cleavage site. The mutants, FGFR1(V561M), FGFR2(V564F), FGFR3(V555M), FGFR4(V550L), FGFR4(C477A), SRC(C277A), were introduced by PCR using primers with the desired mutations. The primers were synthesized by Tsingke Biotechnolog Co., Ltd., and the sequences were listed in Supplementary Table 2. Then plasmid was transfected into E. coli BL21 (DE3) cells and co-expressed with YOPH to get the non-phosphorylated proteins. Cells were grown in LB at 37 °C and induced for 16 h with 0.5 mM IPTG at 18 °C. Cells were harvested by centrifugation for next purification. All steps of purification were performed at 4 °C. Proteins were first purified by Ni-NTA affinity chromatography, and then 6×His tag was removed by PreScission or TEV protease. SRC(C277A) was purified as His-tagged fusion proteins. Anion exchange chromatography (Mono Q) and size exclusion chromatography (SEC) were exploited for further purification. […]

C=CC(=O)N1CCN(CCCn2c(=O)c(-c3c(Cl)c(OC)cc(OC)c3Cl)cc3cnc(NC)nc32)CC1 [PRN1371, 8-(3-(4-Acryloylpiperazin-1-yl)propyl)-6-(2,6-dichloro-3,5-dimethoxyphenyl)-2-(methylamino)pyrido[2,3-d]pyrimidin-7(8H)-one]
IC50 [1]: 0.0018 µM | IC50 [2]: 0.583 µM | mass shift of SRC protein (covalent adduct) [3]: no mass shift was observed

— publication PMC9814232, “Structural insights into the potency and selectivity of covalent pan-FGFR inhibitors” (Communications Chemistry, 2022)
